Results reported in US20160264649A1 (published 2016).
Residue numbers refer to the chain shown, from its start.

B1: 1460_G14 (PGG14) (antibody, V domains shown)
VH: QVLLVQSGTEVKKPGSSVKVSCQASGGAFSSYAFSWVRQAPGQGLEWMGMITPVFGETKYAPRFQGRLTLTAEESLSTTYMELRSLTSDDTAFYYCTRDRRVVPMATDNWLDPWGQGTLVTVSS
VL: DIQLTQSPSSLSASVGDRVTVTCRASQTIHTYLNWYQQIPGKAPKLLIYGASTLQSGVPSRFSGSGSGTDFTLTINSLQPEDFATYYCQQSYSTPRTFGQGTRLDIKR
B2: 1456_P20 (PG20) (antibody, V domains shown)
VH: QVRLVQSGPEVKKPGSSVTVSCQASGGTFSSYAFTWVRQAPGQGLEWLGMVTPIFGEAKYSQRFEGRVTITADESTSTTSIELRGLTSEDTAIYYCARDRRAVPIATDNWLDPWGQGTLVTVSS
VL: B1 VL with T20S, V21I, H30N, T31N, I39T, T53N, S56N, N76S, Y92F

Molecular target: aMLV envelope
Test: cell-based or functional assay

| Binder | neutralization IC50 [µg/mL] |
| --- | --- |
| B1 | > 50 |
| B2 | > 50 |
